Data published in PubChem BioAssay AID1222 (Sanford-Burnham Center for Chemical Genomics, 2008).
The other results are listed elsewhere or left out. Potency and affinity values are given separately. The source made the active and inactive calls.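 The calls were made as follows: active = EC50 below 50 µM in the dose-response confirmation; inactive = the rest.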

Experiment: rescue of cells from ER stress-induced death, primary screen, 384-well, CSM14.1, thapsigargin, ATP luminescence (AID 1222);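 also: death triggered by thapsigargin at about 15 µM added after 2 h compound pretreatment; cell ATP read after overnight thapsigargin exposure of roughly 18 to 22 hours; reference of the scale not given here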
Settings: CSM14.1 thapsigargin-induced death rescue, at 20 µM, active compounds read high

SMILES	cellular ATP content (survival)
O=C(NCC1(N2CCOCC2)CCCCC1)c1cc(=O)[nH]c2ccccc12	inactive: -0.9%
CN1CCN(CCOC(=O)C(O)(c2ccccc2)c2ccccc2)CC1	inactive: 23.7%
N#CC1(Nc2ccccc2)CCN(CCc2ccccc2)CC1	inactive: -0.5%
COc1ccc(CN(CCCl)CCCl)cc1Cl	inactive: 3.6%
CN(C)c1cccc(C(=O)NCC2(N3CCCCC3)CCCCC2)c1	inactive: -0.1%
O=C(OC1CN2CCC1CC2)C1c2ccccc2Oc2ccccc21 (stereo unspecified)	inactive: -3.4%
CCOC(=O)N1CCC(Nc2ccc(OC)cc2)CC1	inactive: 2.6%
O=C(NCC1(N2CCOCC2)CCCCC1)c1cc2ccccc2o1	inactive: 0.4%
COc1ccc(C(=O)NCC2(N3CCCCC3)CCCCC2)c(OC)c1OC	inactive: -1.2%
COc1ccc(NC2CCN(CCc3ccccc3)CC2)c(OC)c1	inactive: 0.8%
CN(C)c1ccc(C(=O)NCC2(N3CCCCC3)CCCCC2)cc1	inactive: -0.7%
CCN1CCC(Nc2cccc(F)c2)CC1	inactive: -0.9%
Fc1ccccc1NC1CCN(Cc2ccccc2)CC1	inactive: -2%
COc1cc(OC)cc(C(=O)NCC2(N3CCOCC3)CCCCC2)c1	inactive: 0.3%
CCC(CO)(C(=O)OC1CN2CCC1CC2)c1ccccc1 (stereo unspecified)	inactive: 2%
CCOc1ncccc1C(=O)NCC1(N2CCOCC2)CCCCC1	inactive: -3.5%
O=C(OC1CN2CCC1CC2)C1c2ccccc2C=Cc2ccccc21 (stereo unspecified)	inactive: 0%
N/C(=N\O)c1c(N)no[n+]1[O-]	inactive: 1%
COc1ccc(C(=O)NCC2(N3CCOCC3)CCCCC2)cc1OC	inactive: -0.9%
c1ccc(CN2CCC(Nc3ccccc3)CC2)cc1	inactive: -0.7%
N#Cc1ccc(C(=O)NCC2(N3CCCCC3)CCCCC2)cc1	inactive: -0.5%
